Laboratory results taken from patent US20160045482A1, “UREIDO-PYRAZOLE DERIVATIVES” (Respivert Limited, priority 2010, published 2016).

How the values were obtained:
IL-8 = IL-8 release activated by human rhinovirus in BEAS2B cells; format: cell-based; conditions: BEAS-2B, MOI of 5, 72 hr, read-out: HRV16-induced IL-8 IC50 Value
Experimental: BEAS2B cells were infected with rhinovirus at an MOI of 5 and incubated for 2 hr at 33° C. with gentle shaking to enhance adsorption. Test compounds were added 2 hr before HRV infection and 2 hr after infection when residual extracellular HRV was washed out. The cells were then washed with PBS, fresh media was added and the cells were incubated for a further 72 hr. The supernatant was collected for assay of IL-8 concentrations using the Duoset ELISA development kit (R&D Systems, Minneapolis, Minn.).

ICAM-1 = test: ICAM1 expression activated by human rhinovirus in BEAS2B cells (cell-based ELISA); conditions: BEAS-2B, HRV16 inoculation (2 hr infection), read-out: HRV16-induced ICAM1 IC50 Value
Experimental: BEAS2B cells were infected with rhinovirus at an MOI of 5 and incubated for 2 hr at 33° C. with gentle shaking to enhance adsorption. Test compounds were added 2 hr before HRV infection and 2 hr after infection when residual extracellular HRV was washed out. The cells were then washed with PBS, fresh media was added and the cells were incubated for a further 72 hr. The supernatant was collected for assay of IL-8 concentrations using the Duoset ELISA development kit (R&D Systems, Minneapolis, Minn.). The level of ICAM-1 expression on the cell surface was determined by cell-based ELISA. After appropriate incubation, cells were fixed with 4% formaldehyde in PBS. After quenching endogenous peroxidase by adding 0.1% sodium azide and 1% hydrogen peroxide, wells were washed with buffer (0.05% Tween in PBS: PBS-Tween). […] The ICAM-1 signal was detected by adding substrate and the optical densities were read at a wavelength of 450 nm and at a reference wavelength of 655 nm using a spectrophotometer. The wells were then washed with PBS-Tween and total cell numbers in each well were determined by reading the absorbance at 595 nm after Crystal Violet staining and elution by 1% SDS solution. The measured OD450-655 readings were corrected for cell number by dividing with the OD595 reading in each well.

pIC50 (IL-8): 10.19
pIC50 (ICAM-1): 9.43
SMILES: COCC(=O)Nc1cc(Oc2ccc(NC(=O)Nc3cc(C(C)(C)C)nn3-c3ccc(C)cc3)c3ccccc23)ccn1 [Reference Compound 2, N-(4-(4-(3-(3-tert-Butyl-1-p-tolyl-1H-pyrazol-5-yl)ureido)naphthalen-1-yloxy)pyridin-2-yl)-2-methoxyacetamide]

pIC50: −log10 of the molar value.
